Reference: patent publication US20120259123A1, “AMINOPYRIDINE COMPOUND” (UBE INDUSTRIES, LTD., priority 2009, published 2012)

Amino acid sequences for entries named in this document (tags omitted). A change or cut given only in a name is not applied to a line headed by its entry.
UniProt P43116: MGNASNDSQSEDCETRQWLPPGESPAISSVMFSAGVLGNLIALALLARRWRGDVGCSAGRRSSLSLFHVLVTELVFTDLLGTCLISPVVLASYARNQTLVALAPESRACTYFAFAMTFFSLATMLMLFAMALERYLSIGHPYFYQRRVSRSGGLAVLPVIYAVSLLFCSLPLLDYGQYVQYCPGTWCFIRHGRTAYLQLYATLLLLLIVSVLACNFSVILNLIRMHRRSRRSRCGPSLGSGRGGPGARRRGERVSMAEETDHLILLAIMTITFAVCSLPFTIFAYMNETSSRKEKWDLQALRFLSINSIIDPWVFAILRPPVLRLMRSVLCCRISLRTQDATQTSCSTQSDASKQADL

Molecular target: T1, human EP2 receptor (Homo sapiens, UniProt P43116)
T1 construct: purchased Euroscreen S.A. ES-562-M; host or cells: HEK293 cells
Assay: Measurement of EP2 receptor binding affinity ([3H]PGE2 displacement)
Details: membrane fraction of HEK293 cells expressing human EP2 receptor; Table 4
Procedure: Measurement of EP2 receptor binding affinity was carried out according to the method of Abramovitz et al. (Biochimica et Biophysica Acta, 1483, 285 (2000)). […] The membrane fraction was recovered on glass fiber filter paper (GF/B, available from Whatman PLC) using a cell harvester […], available from Brandel Inc.), and after washing with a buffer solution (10 mM MES-KOH (pH 6.0), 10 mM MgCl2), radioactivity was measured with a liquid scintillation analyzer (2000CA, available from Packard). […] The dissociation constant (Kd value) was calculated by Scatchard analysis.

How did the Ki turn out when `CCCCC[C@H](O)/C=C/[C@H]1[C@H](O)CC(=O)[C@@H]1C/C=C\CCCC(=O)O` [PGE2, Prostaglandin E2, reference compound] was run?
The Ki was 7.1 nM.
